ChEMBL document CHEMBL1148712, “Design, synthesis, and SAR study of a series of N-alkyl-N'-[2-(aryloxy)-5-nitrobenzenesulfonyl]ureas and -cyanoguanidine as selective antagonists of the TPalpha and TPbeta isoforms of the human thromboxane A2 receptor” (J Med Chem, 2007)

Biological target: T1, Thromboxane A2 receptor (Homo sapiens) (UniProt P21731)
T1 sequence (whole entry): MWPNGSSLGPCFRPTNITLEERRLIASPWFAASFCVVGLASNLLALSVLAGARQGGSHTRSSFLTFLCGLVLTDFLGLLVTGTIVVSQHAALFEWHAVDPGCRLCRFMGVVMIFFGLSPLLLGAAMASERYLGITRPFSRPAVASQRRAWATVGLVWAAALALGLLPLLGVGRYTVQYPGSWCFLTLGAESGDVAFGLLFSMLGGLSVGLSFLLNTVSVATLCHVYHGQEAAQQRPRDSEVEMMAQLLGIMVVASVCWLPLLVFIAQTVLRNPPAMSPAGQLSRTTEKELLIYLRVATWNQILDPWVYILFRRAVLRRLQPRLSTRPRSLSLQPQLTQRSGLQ
Assay: Ratio of IC50 for thromboxane A2 receptor isoform alpha to IC50 for thromboxane A2 receptor isoform beta
Type: functional
How it was run: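 Selectivity index calculated as IC50 for TPα divided by IC50 for TPβ. Both IC50s come from U46619 (1 µM)-induced Fluo-4 [Ca2+]i assays in HEK293 cells stably overexpressing the respective isoform.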

## Cc1cccc(Oc2ccc([N+](=O)[O-])cc2S(=O)(=O)NC(=O)NC(C)(C)C)c1
  Ratio IC50: 23.2
